According to PubChem BioAssay AID940 (Emory University Molecular Libraries Screening Center, 2007):
“And” between values parts separate entries of the source, which are not always exact repeats. Identical values can stand only once. The entries are a selection whose mix differs from that of the whole data set. The source made the active and inactive calls.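 Rule for the calls: active = compounds whose cAMP rise, as percent of the full-agonist control response, exceeds 60; inactive = the rest.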

Amino acid sequences for entries named in this document (tags omitted). A change or cut given only in a name is not applied to a line headed by its entry.
UniProt P43116: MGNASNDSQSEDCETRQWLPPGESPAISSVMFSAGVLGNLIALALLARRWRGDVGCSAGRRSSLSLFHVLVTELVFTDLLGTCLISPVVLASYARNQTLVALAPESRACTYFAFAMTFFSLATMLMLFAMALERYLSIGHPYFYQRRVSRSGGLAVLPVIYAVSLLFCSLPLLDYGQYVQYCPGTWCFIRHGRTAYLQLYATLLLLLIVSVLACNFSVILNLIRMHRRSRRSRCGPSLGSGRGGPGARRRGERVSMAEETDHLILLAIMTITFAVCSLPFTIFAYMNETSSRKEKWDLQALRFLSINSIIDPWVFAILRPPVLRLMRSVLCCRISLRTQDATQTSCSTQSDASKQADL

These compounds were tested against Prostaglandin E2 receptor EP2 subtype (Homo sapiens) (UniProt P43116) (assay: modulation of human EP2 prostaglandin signaling – cell-based, HTRF cAMP, PGE2 stimulation, primary screen (AID 940;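 note: rat C6 glioma line stably carrying human EP2 under a CMV promoter; the protocol text gives 20 µM as final concentration; 100% = response of wells given 1 µM PGE2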)). Settings: EP2-expressing cells, cAMP HTRF FRET, PGE2 co-stimulation; at 25 µM; hits give high values.
`CC1CCC(C(C)C)C(OP(=O)(Nc2ccccn2)c2ccccc2)C1` (stereo not drawn) was tested, and the induction was inactive: 31.8%. For `Cc1nn(-c2ccccc2)c2c1P(=O)(N1CCOCC1)N(C)C(c1ccccc1)=N2` (stereo not drawn), the induction was inactive: 16.9%. In the case of `O=C(/C=C/c1ccccc1)OC1CN2CCC1CC2` (stereo not drawn), the induction is reported as inactive: -5.39%. With `CN(C)C1(CNC(=O)c2ccc(S(C)(=O)=O)cc2)CCCCC1` the induction was inactive: -19.2%. In the case of `O=P1(Nc2ncccn2)COc2ccccc2OC1`, the induction is reported as inactive: 11.5%. `O=[As](O)(c1cccs1)c1cccs1` was tested, and the induction was inactive: 9.96%. `Cc1ccc(OCC(=O)OC2CN3CCC2CC3)cc1` (stereo not drawn) was tested, and the induction was inactive: 25.3%. `O=P1(Nc2ccc(Br)cn2)COc2ccccc2OC1` was tested, and the induction was inactive: 9.75%. In the case of `Nc1cccc([As](=O)(O)c2ccccc2)c1`, the induction is reported as inactive: -19.7%. For `CCOP(=O)(Nc1ccc(C)cn1)OCC`, the induction was inactive: 3.86%. `CN(CCCl)Cc1cc(Cl)c(NC2=NCCN2)c(Cl)c1` was tested, and the induction was inactive: 16.6%. `O=P1(Nc2ccccn2)COc2ccccc2OC1` was tested, and the induction was inactive: 13%. With `CC(C)(C)C(=O)NC(Sc1ncccn1)C(Cl)(Cl)Cl` (stereo not drawn) the induction was inactive: -9.78%. `Clc1n[nH]nc1-c1nn[nH][15n]1` was tested, and the induction was inactive: 0.87%. `COC(=O)c1nsnc1NCCCl` was tested, and the induction was inactive: 16.8%. In the case of `O=[As](O)(c1ccccc1Br)c1ccccc1Br`, the induction is reported as inactive: 0.77%. With `CC(C)/C=N\N=C(\N)N[N+](=O)[O-]` the induction was inactive: 13.4%. For `CN(C(=O)Cc1ccc(Cl)c(Cl)c1)[C@@H]1CCCC[C@H]1N1CCCC1`, the induction was inactive: -6.25% and inactive: 10.4%. In the case of `O=[As](O)(O)c1cccnc1`, the induction is reported as inactive: -18.9%. With `COc1cc(C(=O)NCC2(N3CCOCC3)CCCCC2)cc(Cl)c1OC(C)C` the induction was inactive: -0.13%. In the case of `CN(C(=O)Cc1ccc(Cl)c(Cl)c1)[C@@H]1CC[C@]2(CCCO2)C[C@H]1N1CCCC1`, the induction is reported as inactive: 9%. With `O=C(OC1CN2CCC1CC2)c1ccc(Cl)cc1` (stereo not drawn) the induction was inactive: -1.17%. With `Cc1cccc(OCC(=O)OC2CN3CCC2CC3)c1` (stereo not drawn) the induction was inactive: 32.3%. `O=[As](O)(c1cccc(O)c1)c1cccc(O)c1` was tested, and the induction was inactive: -6.13%. In the case of `CCCOP(=S)(Nc1nc(N)cc(=O)[nH]1)OCCC`, the induction is reported as inactive: 9.62%. In the case of `NS(=O)(=O)Cc1ccc([As](=O)(O)O)cc1`, the induction is reported as inactive: 14.2%. For `Nc1cccc2c([As](=O)(O)O)cccc12`, the induction was inactive: 0.27%. With `O=C(CC(=O)c1ccccc1)O[C@H]1CN2CCC1CC2` the induction was inactive: 23.5%. For `Cc1ccc(NCCc2c([N+](=O)[O-])cc([N+](=O)[O-])cc2[N+](=O)[O-])cc1`, the induction was inactive: -8.32%. For `CCOP(=O)(Nc1cccc2ccccc12)OCC`, the induction was inactive: -0.65%. In the case of `COc1cc(C2NCCC3(OCCO3)C2(C)C)cc(OC)c1OC` (stereo not drawn), the induction is reported as inactive: 15.3%. In the case of `CS(=O)(=O)c1cc([N+](=O)[O-])c2no[n+]([O-])c2c1`, the induction is reported as inactive: -19.6%. With `O=P(Nc1nccs1)(Oc1ccccc1)Oc1ccccc1` the induction was inactive: 2.42%. In the case of `O=P(Nc1nccs1)(c1ccccc1)c1nc2ccccc2s1` (stereo not drawn), the induction is reported as inactive: -9.87%. `CCOP1(=S)c2c(C)nn(CCC#N)c2N=C(c2ccccc2F)N1C` (stereo not drawn) was tested, and the induction was inactive: -14.5%. `Nc1ccccc1[As](=O)(O)c1ccccc1` was tested, and the induction was inactive: -11.6%. For `O=C(O)COc1ccc([As](=O)(O)O)cc1[N+](=O)[O-]`, the induction was inactive: 31.9%. `O=[As](O)(O)c1ccc([As](=O)(O)O)cc1` was tested, and the induction was inactive: 10.1%. `NC(=O)c1nsnc1NCCCl` was tested, and the induction was inactive: -4.45%. In the case of `NC(=O)Nc1ccc([As](=O)(O)O)cc1`, the induction is reported as inactive: 19.5%. `O=[N+]([O-])c1ccc2c(c1)nnn2O` was tested, and the induction was inactive: 14.8%. In the case of `CCOP1(=S)c2c(C)nn(CCC#N)c2N=C(c2ccc(F)cc2)N1C` (stereo not drawn), the induction is reported as inactive: 3.28%. With `CN(C(=O)Cc1ccccc1)[C@@H]1CC[C@]2(CCCO2)C[C@H]1N1CCCC1` the induction was inactive: 16.7% and inactive: 21.3%. In the case of `O=[As](O)(c1ccc(O)cc1)c1ccccc1O`, the induction is reported as inactive: 2.85%. `C[As](=O)(O)c1cccc(C(=O)O)c1` was tested, and the induction was inactive: 3.7%. In the case of `Cc1ccc2nc3c(c(C)c2c1)CC(C(Cl)Cl)S3` (stereo not drawn), the induction is reported as inactive: -1.12%. `Cc1ccc(OP(=O)(Nc2ccc([N+](=O)[O-])cn2)Oc2ccc(C)cc2)cc1` was tested, and the induction was inactive: 5.18%. For `CC(C)c1ccc(OP(=O)(Nc2ccccn2)Oc2ccccc2F)cc1` (stereo not drawn), the induction was inactive: 33.4%. In the case of `[N-]=[N+]=NCC(N)=O`, the induction is reported as inactive: 19.1%. With `O=[As]c1ccc(S(=O)(=O)NCCO)cc1` (stereo not drawn) the induction was inactive: 0.12%. With `ClCCSc1nnc(-c2cccnc2)o1` the induction was inactive: 29.4%. In the case of `Cc1ccc(-c2nnc3n2CC(CI)S3)cc1` (stereo not drawn), the induction is reported as inactive: -22.4%. `O=[N+]([O-])c1cc([N+](=O)[O-])c(-c2ccn[nH]2)s1` was tested, and the induction was inactive: -0.99%. With `CC(C)NC(=O)NP(=O)(Oc1ccccc1)Oc1ccccc1` the induction was inactive: 12.5%. For `CCN(CC)C(=S)SC(NC=O)C(Cl)(Cl)Cl` (stereo not drawn), the induction was inactive: 15%. `Cc1cc(=O)[nH]c(N[N+](=O)[O-])n1` was tested, and the induction was inactive: 35.2%. For `O=C(OC1CN2CCC1CC2)C12CC3CC(CC(C3)C1)C2` (stereo not drawn), the induction was inactive: -1.85%. `Cc1c2c(nc3ccccc13)SC(C(Cl)Cl)C2` (stereo not drawn) was tested, and the induction was inactive: -36.1%. `COc1cc(I)ccc1[As](=O)(O)O` was tested, and the induction was inactive: 6.27%. `COc1ccc2nc(NP(=O)(c3ccccc3)c3ccccc3)sc2c1` was tested, and the induction was inactive: 16.2%. `NC(=O)Nc1cc([As](=O)(O)O)cc(I)c1O` was tested, and the induction was inactive: 23.4%. `COc1ccc(N/C(=N/P(=O)(N2CCOCC2)N2CCOCC2)N2CCOCC2)cc1` was tested, and the induction was inactive: 4.07%. `COP1(=S)c2c(C)nn(CCC#N)c2N=C(c2ccc(F)cc2)N1C` (stereo not drawn) was tested, and the induction was inactive: 17.7%. In the case of `O=C(COc1ccccc1)OC1CN2CCC1CC2` (stereo not drawn), the induction is reported as inactive: 27.1%. With `O=C(O)[C@@H](O)c1ccc([As](=O)(O)O)cc1` the induction was inactive: 19.4%. In the case of `CCOC(=O)c1ccc(NC(=O)C(C)(CCl)SC)cc1` (stereo not drawn), the induction is reported as inactive: -3.87%. In the case of `CCC(C)N(CC(C)C)C(=S)SC(NC(C)=O)C(Cl)(Cl)Cl` (stereo not drawn), the induction is reported as inactive: 32.3%. For `Cc1ccc(N2C(=O)/C(=C/c3cn(CC(=O)NCc4ccco4)c4ccccc34)C(=O)NC2=S)cc1`, the induction was inactive: -20.9%. `CCOC(=O)Nc1ccc([As](=O)(O)O)c(O)c1` was tested, and the induction was inactive: 5.93%. With `Cc1cc(SC(NC(=O)c2ccccc2)C(Cl)(Cl)Cl)nc(C(C)C)n1` (stereo not drawn) the induction was inactive: 29.9%. For `CCOC(=O)Nc1cccc([As](=O)(O)O)c1`, the induction was inactive: 4.75%. In the case of `O=[N+]([O-])c1ccc(Nc2ccc(Oc3ccc([N+](=O)[O-])cc3[N+](=O)[O-])cc2)c([N+](=O)[O-])c1`, the induction is reported as inactive: -4.64%. For `O=P(Nc1ccccn1)(c1cccc2ccccc12)c1cccc2ccccc12`, the induction was inactive: 17%. `Cc1cc(SC(NC=O)C(Cl)(Cl)Cl)ncn1` (stereo not drawn) was tested, and the induction was inactive: 15.2%. In the case of `O=C(Nc1cc([As](=O)(O)O)ccc1O)c1ccccc1`, the induction is reported as inactive: 21.6%. With `CC(C)(C)C(=O)NC(Sc1ccncn1)C(Cl)(Cl)Cl` (stereo not drawn) the induction was inactive: -17.6%. With `O=[N+]([O-])c1ncn(CCn2ncnc2[N+](=O)[O-])n1` the induction was inactive: -4.97%. In the case of `O=[N+]([O-])c1cccc(NC2=NCC(CBr)S2)c1` (stereo not drawn), the induction is reported as inactive: -32.5%. In the case of `O=C(O)CNc1ccc([As](=O)(O)O)cc1`, the induction is reported as inactive: 2.74%. In the case of `COc1ccc(C2=NCC(CBr)S2)cc1` (stereo not drawn), the induction is reported as inactive: -1.62%. For `O=[N+]([O-])c1cccc2n[nH]nc12`, the induction was inactive: 1.81%. In the case of `CC(=O)N1C2C3N(C(C)=O)C1C1N(C(C)=O)C(C(N1C(C)=O)N3C(C)=O)N2C(C)=O`, the induction is reported as inactive: 27.9%. `CCc1nc2c(n1)c1c(non1O)c1c2no[n+]1[O-]` was tested, and the induction was inactive: 8.73%. In the case of `O=[N+]([O-])c1cc([N+](=O)[O-])c(CCNc2ccccc2)c([N+](=O)[O-])c1`, the induction is reported as inactive: -19.4%. In the case of `Cc1ccc(NP(=O)(Oc2ccccc2)Oc2ccccc2)nc1`, the induction is reported as inactive: 3.72%. In the case of `C[N+]1=C2C=CC=CC=C2SC12C([N+](=O)[O-])=CC([N+](=O)[O-])=C[C-]2[N+](=O)[O-]` (stereo not drawn), the induction is reported as inactive: -57.3%. For `Nc1ccc([As](=O)(O)c2ccc(N)cc2)cc1`, the induction was inactive: 17.4%. For `CCN(/C(=N/P(=O)(N1CCOCC1)N1CCOCC1)N1CCOCC1)c1ccc(OC)cc1`, the induction was inactive: 7.46%. `CN(C)C(=O)OCCc1n(C)cc[n+]1C` was tested, and the induction was inactive: 16.5%. In the case of `CC(C)=N/N=C(\N)N[N+](=O)[O-]`, the induction is reported as inactive: -7.57%. `O=C(CO)Nc1ccc([As](=O)(O)O)cc1` was tested, and the induction was inactive: -1.61%. With `CC1CCN(C(=O)Oc2c(Cl)cc(Cl)c3cccnc23)CC1` the induction was inactive: -4.63%. In the case of `NC(=O)c1cc([N+](=O)[O-])cc([N+](=O)[O-])c1N`, the induction is reported as inactive: 12.8%. In the case of `Cc1ccc(N/C(=N/P(=O)(N2CCOCC2)N2CCOCC2)N2CCOCC2)cc1`, the induction is reported as inactive: 5.17%. `Cc1ccc(OP(=O)(Nc2nccs2)Oc2ccc(C)cc2)cc1` was tested, and the induction was inactive: 6.21%. In the case of `COc1ccccc1OP(=O)(Nc1ccc(C)cn1)Oc1ccccc1OC`, the induction is reported as inactive: 6.01%. For `CCOc1ccc(/C=C2/C(=O)NC(=O)N(Cc3ccco3)C2=O)cc1`, the induction was inactive: -55.4%. For `O=[N+]([O-])c1ccc(C[As](=O)(O)O)cc1`, the induction was inactive: 9.42%. With `CN1CCCC(OC(=O)C(c2ccccc2)c2ccccc2)C1` (stereo not drawn) the induction was inactive: 2.31%. For `Clc1ccc(Cl)c(NC2=NCC(CBr)S2)c1` (stereo not drawn), the induction was inactive: 17.6%. For `Nc1cc(N)c2nonc2c1[N+](=O)[O-]`, the induction was inactive: 15.2%. For `CC(C)CC(=O)NC(Sc1ccc(Cl)cc1)C(Cl)(Cl)Cl` (stereo not drawn), the induction was inactive: 15.1%. For `O=C(NC(Sc1ccncn1)C(Cl)(Cl)Cl)c1ccccc1` (stereo not drawn), the induction was inactive: 39.4%.
